Test results from PubChem BioAssay AID2540 (Sanford-Burnham Center for Chemical Genomics, 2010).
The list shows a part of the results, in another mix than the full data. The source made the active and inactive calls. No stated cut-off is given here; in the data, active means inhibition above about 50%; inactive means the rest.

Protein sequences, listed by entry. Tags and fused reporters are not part of them.
UniProt Q96LD8, whole entry: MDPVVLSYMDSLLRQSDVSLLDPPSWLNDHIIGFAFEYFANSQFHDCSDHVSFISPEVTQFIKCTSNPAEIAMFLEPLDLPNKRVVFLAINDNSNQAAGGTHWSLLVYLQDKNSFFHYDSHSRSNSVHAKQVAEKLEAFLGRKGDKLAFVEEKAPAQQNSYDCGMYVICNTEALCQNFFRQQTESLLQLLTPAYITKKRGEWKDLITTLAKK

Target: Sentrin-specific protease 8 (Homo sapiens) (UniProt Q96LD8)
Assay: blockers of human SENP8 peptidase activity – biochemical, luminescence, primary screen (AID 2540)
Conditions: purified SENP8, Z-RLRGG-aminoluciferin cleavage, at 10 µM, hits give high values

SMILES | inhibition
Cc1cc(C)cc(OP(C)(=O)Nc2ccccn2)c1 (stereo unspecified) | inactive: 2.41%
CP(=O)(Nc1cccc(Br)c1)Oc1ccccc1 (stereo unspecified) | inactive: 5.11%
Cc1ccc(C)c(NP(C)(=O)Oc2ccccc2)c1 (stereo unspecified) | inactive: 4.54%
COc1ccccc1OP(C)(=O)Nc1cccc(Br)c1 (stereo unspecified) | inactive: -4.55%
Cc1cc(C)cc(OP(C)(=O)Nc2ccc(C)cc2C)c1 (stereo unspecified) | inactive: -1.93%
CCOC(=O)c1ccc(NP(C)(=O)Oc2cc(C)cc(C)c2)cc1 (stereo unspecified) | inactive: 4.65%
CC1=NCCc2c1[nH]c1ccccc21.O=[N+]([O-])c1cc([N+](=O)[O-])c(O)c([N+](=O)[O-])c1 | inactive: -0.846%
O=C(O)c1cccc(Nc2c([N+](=O)[O-])cc([N+](=O)[O-])cc2[N+](=O)[O-])c1 | inactive: -2.8%
CN1CCCCC1COC(=O)C1(O)c2ccccc2CCc2ccccc21 (stereo unspecified) | inactive: 3.69%
COc1ccccc1OP(C)(=O)Nc1c(C)cccc1C (stereo unspecified) | inactive: 0.541%
CCCOc1ccc(NP(C)(=O)Oc2ccc(Cl)cc2)cc1 (stereo unspecified) | inactive: -1.67%
CP(=O)(Nc1ccc(SC(F)(F)F)cc1)Oc1ccccc1 (stereo unspecified) | inactive: 5.38%
CCOC(=O)C(CC)C1=NC(C)(C)Cc2ccccc21.O=[N+]([O-])c1cc([N+](=O)[O-])c(O)c([N+](=O)[O-])c1 (stereo unspecified) | inactive: 2.62%
CC1=C2N=C(C=C3N=C(C(C)=C4[N-][C@@](C)([C@@H]5N=C1[C@](C)(CCC(=O)NC[C@@H](C)OP(=O)([O-])O[C@H]1[C@@H](O)[C@@H](n6cnc7cc(C)c(C)cc76)O[C@@H]1CO)[C@H]5CC(N)=O)[C@@](C)(CC(N)=O)[C@@H]4CCC(N)=O)[C@@](C)(CC(N)=O)[C@@H]3CCC(N)=O)C(C)(C)[C@@H]2CCC(N)=O.[C-]#N.[Co+3] | active: 53.9%
O=[N+]([O-])c1cc([N+](=O)[O-])c(Nc2nnnn2CCO)c([N+](=O)[O-])c1 | inactive: 0.527%
O=[N+]([O-])c1cc([N+](=O)[O-])c(-c2cnn(-c3ccccc3)c2)c([N+](=O)[O-])c1 | inactive: 7.65%
Cc1nc2ccc3ccccc3c2s1.O=[N+]([O-])c1cc([N+](=O)[O-])c(O)c([N+](=O)[O-])c1 | inactive: -15%
O=[N+]([O-])c1cc([N+](=O)[O-])c(-n2nnc3ccccc32)c([N+](=O)[O-])c1 | inactive: 1.8%
CCOP(C)(=S)SCC(=O)NC(C)C(=O)O (stereo unspecified) | inactive: -1.4%

SMILES | inhibition
O=[N+]([O-])c1cc([N+](=O)[O-])c(O)c([N+](=O)[O-])c1.c1ccc(Oc2ccncc2)cc1 | inactive: -2.69%
CCOC(=O)c1ccc(NP(C)(=O)Oc2ccc(OC)cc2)cc1 (stereo unspecified) | inactive: -1.33%
CP(=O)(Nc1ccccn1)Oc1ccc(Cl)cc1 (stereo unspecified) | inactive: -4.3%
CP(=O)(Oc1ccccc1)OC(c1ccccc1)C(F)(F)F (stereo unspecified) | inactive: -3.52%
CP(=O)(Nc1ccc(SC(F)(F)F)cc1)Oc1ccc(Cl)cc1 (stereo unspecified) | inactive: -9.78%
Cc1cccc(C)c1OP(C)(=O)Nc1ccc(SC(F)(F)F)cc1 (stereo unspecified) | inactive: -8.1%
Cc1cc(C)cc(OP(C)(=O)Nc2ccc(SC(F)(F)F)cc2)c1 (stereo unspecified) | inactive: 7.43%
CP(=O)(NC(=O)Nc1ccccc1)Oc1ccccc1 (stereo unspecified) | inactive: -8.73%
CCc1ccc(OP(C)(=O)N2CCN(c3ccc([N+](=O)[O-])cc3)CC2)cc1 (stereo unspecified) | inactive: 1.98%
CP(=S)(Nn1cnnc1)Oc1ccccc1 (stereo unspecified) | inactive: -4.37%
COc1ccccc1OP(C)(=O)Nc1ccccc1 (stereo unspecified) | inactive: -6.16%
CP(=O)(Nc1ccccc1Br)Oc1ccccc1 (stereo unspecified) | inactive: 0.582%
CCOC(=O)c1ccc(NP(C)(=O)Oc2ccccc2)cc1 (stereo unspecified) | inactive: 0.22%
Cc1ccc(NP(C)(=O)Oc2ccccc2)c(C)c1 (stereo unspecified) | inactive: -1.38%
COc1ccccc1OP(C)(=O)Nc1ccc(C)cc1 (stereo unspecified) | inactive: 6.98%
COc1ccc(OP(C)(=O)Nc2cccc(F)c2)cc1 (stereo unspecified) | inactive: 6.08%
COc1ccccc1OP(C)(=O)Nc1cc(Cl)ccc1C (stereo unspecified) | inactive: -1.67%
Cc1cc(C)cc(OP(C)(N)=O)c1 (stereo unspecified) | inactive: -7.03%
O=[N+]([O-])c1cc([N+](=O)[O-])c(Nc2cccnc2)c([N+](=O)[O-])c1 | inactive: -5.15%

SMILES | inhibition
Cc1cccc(C)c1OP(C)(N)=O (stereo unspecified) | inactive: 0.989%
CC(C)(C)c1ccc(OP(C)(=O)Nc2ccc(SC(F)(F)F)cc2)cc1 (stereo unspecified) | inactive: -5.84%
CCN(CC)CCCOC(=O)C(O)(c1ccccc1)c1ccccc1 | inactive: 0.836%
Cc1c(NP(C)(=O)Oc2ccc(C(C)C)cc2)c(=O)n(-c2ccccc2)n1C (stereo unspecified) | inactive: 2.25%
O=[N+]([O-])c1cc([N+](=O)[O-])c(Nc2ccccn2)c([N+](=O)[O-])c1 | inactive: 8.29%
CCc1ccc(OP(C)(=O)O)cc1 | inactive: 3.34%
COc1ccccc1OP(C)(=O)Nc1ccc(C)cc1C (stereo unspecified) | inactive: 2.25%
CP(=O)(Nc1ccccn1)Oc1ccccc1 (stereo unspecified) | inactive: -5.42%
COc1ccccc1OP(C)(=O)Nc1ccc(Br)cc1 (stereo unspecified) | inactive: -8.47%
CN(C)CCOC(=O)C(O)(c1ccccc1)C1CCCC1 (stereo unspecified) | inactive: 0.309%
COc1ccc(OP(C)(=O)Nc2ccccn2)cc1 (stereo unspecified) | inactive: 3.45%
Cc1nc2ccc3ccccc3c2o1.O=[N+]([O-])c1cc([N+](=O)[O-])c(O)c([N+](=O)[O-])c1 | inactive: 4.69%
CP(=O)(Nc1ccc(Cl)cc1Cl)Oc1ccccc1 (stereo unspecified) | inactive: -5.16%
CP(=O)(OCCOc1ccccc1)OCCOc1ccccc1 | inactive: -0.105%
Cc1cc(C)cc(OP(C)(=O)Nc2cccc(C(F)(F)F)c2)c1 (stereo unspecified) | inactive: 4.25%
COc1ccc(OP(C)(=O)Nc2ccccc2Br)cc1 (stereo unspecified) | inactive: 0.443%
COc1ccccc1OP(C)(=O)Nc1ccc(C)c(C)c1 (stereo unspecified) | inactive: -2.19%
Nc1ccc2c(ccc3cccnc32)n1.O=[N+]([O-])c1cc([N+](=O)[O-])c(O)c([N+](=O)[O-])c1 | inactive: -6.84%
